The test has as its system Bacillus licheniformis. As to conditions: 1 l of 15 g/l ONTA, 90 g biomass, 15 g/l sugar, pH about 6, 25° C., 24 hours.

Experimental findings from patent publication US6582952B1 (priority 1997, dated 2003) are described below.

Only a part of the results on these compounds is given; other tests are left out.

Consider `O=c1[nH]nc([N+](=O)[O-])[nH]1`, for which the “conversion of ONTA into the corresponding amine” value is on record as “greater than 80%”.
